In article PMC11266173 one finds Km of cleavage of Ub-AMC by TGEV PLpro (release of AMC, fluorescence Ex/Em 350/440, Michaelis-Menten, double reciprocal plot) data, which are given here for one substance.

The experiment deals with TGEV PLpro (papain-like protease of transmissible gastroenteritis virus strain SC2021) (transmissible gastroenteritis virus (TGEV) strain SC2021).

Turning to “Ubiquitin-AMC (from UniProt P0CG48 1-76)”, the Km of cleavage of Ub-AMC by TGEV PLpro (release of AMC, fluorescence Ex/Em 350/440, Michaelis-Menten, double reciprocal plot) turned out to be 28.9.
